# Measured affinities in a library of Ab-95 light chain variants

Reference: Engelhart et al. 2022, doi:10.1038/s41597-022-01779-4. File: FLAb, binding data.

All variants were tested on one target, the spike HR2 peptide PDVDLGDISGINAS (SARS-CoV-2).

Ab-95 is the parent antibody, in scFv form: VH, then the linker GGGGSGGGGSGGGGS, then VL. The heavy chain is unchanged in all variants.
VH: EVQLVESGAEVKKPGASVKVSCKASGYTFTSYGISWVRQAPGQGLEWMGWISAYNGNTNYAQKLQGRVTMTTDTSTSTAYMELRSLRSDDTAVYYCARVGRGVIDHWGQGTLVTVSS
VL: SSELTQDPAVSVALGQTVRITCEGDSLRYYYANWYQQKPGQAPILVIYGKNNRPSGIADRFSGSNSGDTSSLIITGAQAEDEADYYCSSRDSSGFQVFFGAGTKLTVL

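Phage display of a naive human antibody library on the peptide gave the parent. In library AAYL52, one, two or three CDR residues were substituted; doubles and triples were drawn at random. AlphaSeq pools MATa yeast showing the antibodies with MATalpha yeast showing the peptide. Binding brings cells together so that they mate, and sequencing counts the barcode pairs among the diploids. Each replicate has its own calibration line, from reference interactions of the BCL2 family. Mating was done three times.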

Substitutions are numbered in sequence along the VL above, starting at 1 (not Kabat). Numbers give log10(Kd / nM), so 0 is 1 nM and 3 is 1 µM. Smaller is tighter. An entry "nd" has no value in the source: the pair was not observed among the diploids in that replicate. This suggests poor binding but is not conclusive. Empty control strains, which show no peptide, gave a signal in 28% of pairings with library AAYL52; the median was 3.91 and 95% of these signals were weaker than 2.90. No background was subtracted. Also given: how often the same scFv was detected with the empty control strains. Parent in this assay: reference entry 2.31, copy in this library 2.25.

G24W/D25V/N51W: nd, nd, nd (controls 0 of 9).
N51D/S89C/Q96E: 2.65, 2.32, 2.81 (controls 3 of 9).
L27F/A32G/S92D: 3.12, 4.15, nd (controls 2 of 9).
R53S/S89I/S92K: 2.90, 3.24, 3.07 (controls 0 of 9).
G24I/S88A/F98M: 3.81, 3.01, nd (controls 1 of 9).
A32E/S93W/V97Y: nd, nd, nd (controls 3 of 9).
L27S/G94S/F98Y: 4.17, 3.40, 3.46 (controls 2 of 9).
G24I/G94C/V97N: nd, nd, nd (controls 1 of 9).
N52P/S92Y/V97H: 5.29, nd, nd (controls 3 of 9).
A32I/R53T/P54H: 3.73, 4.77, 4.50 (controls 5 of 9).
A32F/R53Y/V97T: 4.16, nd, nd (controls 2 of 9).
D25H/N51G/N52G: 2.69, 2.57, 3.58 (controls 2 of 9).
G24C/A32Y/N33R: nd, nd, nd (controls 2 of 9).
E23S/G24W/S93P: nd, 3.20, nd (controls 3 of 9).
E23P/S55G/F95G: 3.67, 3.50, nd (controls 2 of 9).
D25E/S26C/N33A: nd, 3.90, 4.52 (controls 0 of 9).
A32R/S89W/R90V: nd, 3.74, nd (controls 1 of 9).
S26Q/K50E/S55P: 2.73, 2.76, 2.95 (controls 3 of 9).
D25E/S55T/S89M: 2.99, 2.67, 2.61 (controls 6 of 9).
G24S/D25A/S92C: 3.64, 3.74, 3.16 (controls 3 of 9).
Y31S/N33C/N52H: 4.20, 4.40, nd (controls 5 of 9).
E23Q/R28K/G94F: 1.32, 1.60, 1.02 (controls 1 of 9).
F95S/V97S/F98M: nd, 3.52, 4.13 (controls 4 of 9).
A32H/R53E/Q96A: nd, nd, nd (controls 5 of 9).
S89C/R90L/Q96S: 2.28, 2.06, 2.11 (controls 4 of 9).
G24T/K50A/S92N: 3.92, 3.83, nd (controls 5 of 9).
S26R/L27T/G94E: nd, nd, 3.58 (controls 5 of 9).
Y31F/G49S/F98Q: 3.71, nd, nd (controls 0 of 9).
N51V/S93Y/F95T: 2.55, 3.37, 2.11 (controls 0 of 9).
E23Q/N33R/G94D: nd, 5.15, nd (controls 5 of 9).
S26C/S92Q: 2.46, 2.47, 1.81 (controls 5 of 9).
G24I/S88G/D91P: nd, nd, nd (controls 1 of 9).

The 4 strongest on average among those seen in every replicate, once more:

Variant E23Q/R28K/G94F showed 1.32, 1.60, 1.02 (controls 1 of 9).
Variant S89C/R90L/Q96S showed 2.28, 2.06, 2.11 (controls 4 of 9).
Variant S26C/S92Q showed 2.46, 2.47, 1.81 (controls 5 of 9).
Variant N51D/S89C/Q96E showed 2.65, 2.32, 2.81 (controls 3 of 9).